Experimental data taken from patent publication EP0863156A1 (American Cyanamid Company, priority 1997, dated 1998).

Protein sequences, listed by entry. Tags and fused reporters are not part of them.
UniProt P30680, whole entry: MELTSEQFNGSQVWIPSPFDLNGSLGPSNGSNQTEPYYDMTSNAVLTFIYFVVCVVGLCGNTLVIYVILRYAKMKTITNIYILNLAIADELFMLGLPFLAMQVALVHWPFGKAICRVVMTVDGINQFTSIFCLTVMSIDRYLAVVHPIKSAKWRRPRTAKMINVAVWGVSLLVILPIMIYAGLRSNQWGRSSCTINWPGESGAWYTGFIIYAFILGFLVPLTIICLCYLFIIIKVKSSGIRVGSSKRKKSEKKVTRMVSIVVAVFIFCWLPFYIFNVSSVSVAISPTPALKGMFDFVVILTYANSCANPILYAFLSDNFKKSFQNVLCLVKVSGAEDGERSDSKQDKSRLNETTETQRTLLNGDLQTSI

Target: SSTR2 (Rattus norvegicus, UniProt P30680)
Experiment: cAMP accumulation in forskolin-stimulated GH4C1/SSTR2 cells (SPA radioimmunoassay)
Type: cell-based
Conditions: cAMP level, dose response of SRIF agonist + 10 µM peptide 1, forskolin stimulated cells

## C[C@H](N)C(=O)NCC(=O)N[C@H]1CSSC[C@@H](C(=O)O)NC(=O)[C@H](CO)NC(=O)[C@H]([C@@H](C)O)NC(=O)[C@H](Cc2ccccc2)NC(=O)[C@H]([C@@H](C)O)NC(=O)[C@H](CCCCN)NC(=O)[C@H](Cc2c[nH]c3ccccc23)NC(=O)[C@H](Cc2ccccc2)NC(=O)[C@H](Cc2ccccc2)NC(=O)[C@H](CC(N)=O)NC(=O)[C@H](CCCCN)NC1=O
  Maximum: 8.281
  Minimum: 2.883
